Reference: paper PMC4698308, “A new amino acid substitution (Ala-205-Phe) in acetolactate synthase (ALS) confers broad spectrum resistance to ALS-inhibiting herbicides” (Planta, 2015)

How the values were obtained:
[1] = test system: recombinant Arabidopsis thaliana ALS variant W574L; assay type: biochemical; details: IC50 mutant divided by IC50 sensitive ALS; max inhibitor concentration 1.00 × 10^−04 M
Procedure: (§1) Effects of SNPs identified in sequencing analysis on ALS activity were studied using A. thaliana. The ALS gene from A. thaliana and derivatives thereof were de novo synthesized and subcloned into pET-24d(+) (Life Technologies. Grand Island, NY, USA) using NcoI and XhoI restriction sites. Protein constructs contained an 85 amino acid N-terminal deletion (chloroplast transit peptide) and the addition of an N-terminal Hexa-histidine tag to facilitate purification.
(§2) Lysis was performed by at least two passes through a fluidizer, followed by centrifuging at 80000×g for 30 min at 4 °C. […] Fractions containing ALS protein were pooled and stored at −20 °C.
(§3) Inhibitors, purchased from Sigma as Pestanal standards (Sigma-Aldrich, Deisenhofen, Germany), were dissolved in DMSO and added to the reaction mixture. Inhibitors evaluated included imidazolinone, sulfonylurea, triazolopyrimidines, sulfonylamino-carbonyl- triazolinones, and pyrimidinyl (thio) benzoate herbicides. The reaction mixture was incubated at 30 °C for 60 min and stopped with 70 µl of H2SO4 (3 M). The reaction was then heated to 56 °C for 15 min to convert acetolactate into acetoin. […] For each inhibitor, resistance factors were calculated by dividing IC50 values for mutant and sensitive ALS.

[2] = test system: recombinant Arabidopsis thaliana ALS variant A205V; assay type: biochemical; details: IC50 mutant divided by IC50 sensitive ALS; max inhibitor concentration 1.00 × 10^−04 M
Procedure: as §1, §2, §3

Substance: Bensulfuron
- Resistance factor W574L [1]: 642
- Resistance factor A205V [2]: 54
